The results in this text go back to EP0987250A1, “INDOLE DICARBOXYLIC ACID DERIVATIVES” (SHIONOGI & CO., LTD., priority 1997, dated 1998).

The target of the assay is T1, human sPLA2 (Homo sapiens, UniProt P14555).
T1 sequence (P14555 21-144): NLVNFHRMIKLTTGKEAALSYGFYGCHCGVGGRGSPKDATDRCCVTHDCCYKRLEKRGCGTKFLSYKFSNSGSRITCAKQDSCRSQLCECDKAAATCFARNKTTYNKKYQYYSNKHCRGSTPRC
The assay can be described thus: In vitro test for sPLA2-inhibitory action by PC/DOC method. The assay is classed as biochemical. The following applies: PC/DOC = 1 mM/3 mM; Tris buffer 50 mM, pH 8.0; 40°C for 30 minutes; oleic acid measured by HPLC. The procedure:
The inhibitory activity against sPLA2 (secretory PLA2) was determined according to the method of Schädlich, H. R., Büchler, M. et al. described in J. Clin. Chem, Chin. Biochem. 25: 505-609 (1987).
A 50 mM solution of 1-palmitoyl-1-oleoyl-sn-glycero-3-phosphatidylcholine in chloroform (PC) was used as a substrate. A 150 mM solution of sodium deoxycholate in methanol (DOC) was used as a surface-active agent
For each of test compounds (compounds (10) and (11)) were used 2 µl each of the substrate and the surface-active agent. First, the substrate and the surface-active agent were transferred into an Eppendorf tube and the solvent was evaporated by applying a nitrogen stream. Then, the tube was placed in a desiccator and evacuated with a pump to complete dryness. […]
To a test compound solution were added the substrate solution and the buffer solution for measurement prepared as described above and the resulting mixture was stirred to mix. […] HPLC analysis was carried out under the following analysis conditions: Column: Supersphere ^R60 RP-8 (Merck & Co.) Mobile: Phase: Acetonitrile : Distilled water (93:7) Detection: Absorbance at 254 nm
The inhibitory activity of the compound was calculated from the amount of oleic acid thus-measured. The sPLA2-inhibitory activity for each of the compounds was determined by the above-described method. […]

One may read the IC50 as the concentration at which inhibition is half-maximal. In turn, `CCc1c(C(=O)C(N)=O)c2c(OCC(=O)O)cccc2n1Cc1ccccc1` [Compound 21, reference compound] registered a 50% inhibitory concentration (IC50) of 13.6 nM.
